Patent US10934275B2, “IRE1 small molecule inhibitors” (Cornell University, priority 2016, dated 2021)
Structures can show the parent of a compound that is named as a salt.

Amino acid sequences for entries named in this document (tags omitted). Residues count along the entry.
UniProt O75460, 468-977 limits assumed: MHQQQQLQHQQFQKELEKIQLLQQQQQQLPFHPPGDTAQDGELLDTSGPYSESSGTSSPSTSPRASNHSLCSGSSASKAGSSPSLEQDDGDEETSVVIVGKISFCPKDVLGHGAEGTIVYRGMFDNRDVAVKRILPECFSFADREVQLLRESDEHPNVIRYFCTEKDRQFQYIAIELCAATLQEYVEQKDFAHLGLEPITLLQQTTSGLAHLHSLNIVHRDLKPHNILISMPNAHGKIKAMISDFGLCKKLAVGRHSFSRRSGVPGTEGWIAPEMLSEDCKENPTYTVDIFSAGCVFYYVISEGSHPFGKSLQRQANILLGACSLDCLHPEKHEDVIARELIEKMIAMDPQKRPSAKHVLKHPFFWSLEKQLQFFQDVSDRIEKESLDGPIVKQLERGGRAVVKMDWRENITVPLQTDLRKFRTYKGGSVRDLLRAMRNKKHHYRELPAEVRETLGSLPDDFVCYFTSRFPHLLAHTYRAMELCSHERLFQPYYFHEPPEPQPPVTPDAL
UniProt O75460, 19-977 limits assumed: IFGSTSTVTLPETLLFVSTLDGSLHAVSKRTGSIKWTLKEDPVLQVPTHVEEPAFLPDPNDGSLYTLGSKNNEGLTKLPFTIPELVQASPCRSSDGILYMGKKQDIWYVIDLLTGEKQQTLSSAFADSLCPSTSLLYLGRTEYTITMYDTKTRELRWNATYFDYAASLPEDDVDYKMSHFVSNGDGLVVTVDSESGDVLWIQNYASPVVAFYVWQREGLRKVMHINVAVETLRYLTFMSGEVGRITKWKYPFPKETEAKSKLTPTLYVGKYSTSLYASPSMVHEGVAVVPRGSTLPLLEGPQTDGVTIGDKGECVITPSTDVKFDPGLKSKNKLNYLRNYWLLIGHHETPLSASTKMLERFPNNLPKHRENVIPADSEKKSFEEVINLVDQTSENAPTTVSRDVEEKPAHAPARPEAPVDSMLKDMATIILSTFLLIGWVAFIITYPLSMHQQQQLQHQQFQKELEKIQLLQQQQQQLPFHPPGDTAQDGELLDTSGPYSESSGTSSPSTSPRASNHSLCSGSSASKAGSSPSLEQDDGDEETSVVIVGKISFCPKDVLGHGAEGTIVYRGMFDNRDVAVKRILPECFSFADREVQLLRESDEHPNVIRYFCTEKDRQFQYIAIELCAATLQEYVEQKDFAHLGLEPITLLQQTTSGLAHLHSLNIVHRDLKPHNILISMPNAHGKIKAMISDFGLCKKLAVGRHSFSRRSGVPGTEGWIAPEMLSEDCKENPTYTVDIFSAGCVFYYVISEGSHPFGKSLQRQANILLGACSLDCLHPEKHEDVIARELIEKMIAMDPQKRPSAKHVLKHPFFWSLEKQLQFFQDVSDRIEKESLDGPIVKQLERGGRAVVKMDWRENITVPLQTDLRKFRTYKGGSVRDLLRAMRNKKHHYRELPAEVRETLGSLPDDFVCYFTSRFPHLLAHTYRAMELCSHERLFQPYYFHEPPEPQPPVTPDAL

Columns and labels:
[1] = biological target: T1, IRE1α (Homo sapiens, UniProt O75460); assay: In vitro FRET assay (XBP1 RNA probe cleavage by IRE1α)
Method: In vitro FRET assay was performed to evaluate the ability of select compounds to inhibit IRE1, the results of which are summarized in Table 5. To perform the in vitro FRET assay, 1× complete assay buffer (CAB; […], 50 mM sodium citrate pH 7.15, 1 mM magnesium acetate, 0.02% tween 20) was used to dilute SignalChem IRE1α protein to a final concentration of 2 nM. Selected compounds were serially diluted with DMSO in a non-binding black 384-well plate for a total of 15 ul in each well. 2 ul of the serially diluted compound or DMSO control were then added to new wells containing 98 ul of 1×CAB, for a total volume of 100 ul, 10 ul of which were then transferred to wells of a new plate. 5 ul of the diluted IRE1α was then added to each well. 5 ul of a […] XBP1 RNA probe was then added to each well. Fluorescence was then read over 30 minutes in kinetic mode (485/515 nm).
Two RNA probes were used, XBP1 wildtype (SEQ ID NO: 2) which is able to be spliced by active IRE1α or XBP1 mutant (SEQ ID NO: 3) which is unable to be spliced. Each probe contained a 5′ 6-FAM modification and a 3′ IOWA Black FQ modification.
A second FRET assay was performed to assess ATP-mediated inhibition. In this case, compounds and IRE1α were prepared and combined as discussed above, with the addition of ATP up to 1 mM final concentration. This mixture was incubated at room temperature for 60 minutes and then 5 ul of 400 nM XBP1 wildtype or mutant RNA probe was added. Plates were then read over 30 minutes in kinetic mode (485/515 nm).

[2] = biological target: T1, IRE1α; assay: IRE1α Endoribonuclease Nanoluciferase Assay (XBP1 luciferase reporter, 293T cells); conditions: read-out: Mean EC50, 293T cells transfected with XBP1 luciferase reporter plasmid, stressors +/- inhibitors
Method: Compounds disclosed herein were assessed for disruption of IRE-1 signaling using a IRE1α Endoribonuclease Nanoluciferase Assay. Briefly, 2.5×10^6 293T cells were seeded in a 10 cm^2 tissue culture plate. About 24 hours later, the cells were transfected with Effectene. In a 15 mL Tube, the following was added: 2 μg XBP1 luciferase reporter plasmid (PGK-Luc2-P2A-XBP1u-Nanoluciferase-PEST); 300 μl EC buffer; and 16 μl Enhancer, followed by incubation at room temp for 5 minutes. Next, 60 μl Effectene (Qiagen 301427) was added, followed by incubation at room temperature for 10 minutes. 2.6 mL cDMEM media was added. Old media was aspirated from the cells, followed by addition of 7 mL fresh media. Full transfection mixture was added dropwise to cells. Cells were incubated for 6 hours, followed by tripsinization, centrifugation and resuspension in 11 mL media. 100 uL of cells were plated per a well in a 96 well plate. A day later, stressors of choice +/− inhibitors were added. To harvest, media was aspirated from cells completely, then 50 uL 1× passive lysis buffer (Promega: E1941) was added per well and put on shaker (300 rpm) for 30 minutes at room temperature. Cells were centrifuged, and 15 uL sample per well was added to a new, opaque white 384 well plate (Corning 3570). 15 uL OneGlo (nanoluciferase kit, Promega N1630) was added. Plates were spun down, placed on shaker (300 rpm) for 10 minutes. Plates were read on luminometer, 1000 ms integration time per well. 15 uL Stop and Glo (nanoluciferase kit) was added. Plates were spun down, placed on shaker (300 rpm) for 10 minutes. Plates were read on luminometer, 1000 ms second integration time per well. Recordings are provided below in Table 6.

[3] = read-out: Mean EC50, SignalChem IRE1α protein 2 nM
[4] = read-out: Mean EC50, SignalChem IRE1α protein 2 nM, tested form: trifluoroacetate

| Structure (SMILES) | EC50 [1, 3] [µM] | EC50 [2] [µM] | also measured |
| --- | --- | --- | --- |
| CN1CC2CCC1CN2Cc1ccc(NC(=O)Nc2cc(-c3ccc4nc(NC5CCNCC5)ncc4c3)n(C)n2)cc1C(F)(F)F (centres unmarked) | > 0.1 | > 0.1 |  |
| CC(c1ccc(NC(=O)Nc2cc(-c3ccc4nc(NC5CCNCC5)ncc4c3)n(C)n2)cc1C(F)(F)F)N1CCN(C)CC1 (centres unmarked) | < 0.005 | > 0.1 |  |
| CN1CC2CCC(C1)N2Cc1ccc(NC(=O)Nc2cc(-c3ccc4nc(NC5CCNCC5)ncc4c3)n(C)n2)cc1C(F)(F)F | 0.005 to 0.05 | > 0.1 |  |
| CN(C)Cc1ccc(NC(=O)Nc2cc(-c3ccc4nc(NC5CCNCC5)ncc4c3)n(C)n2)cc1C(F)(F)F | > 0.1 |  |  |
| CN1CCN(Cc2ccc(NC(=O)Nc3cc(-c4ccc5nc(NCC6CNC6)ncc5c4)n(C)n3)cc2C(F)(F)F)CC1 | 0.005 to 0.05 |  |  |
| CN1CCN(Cc2ccc(CC(=O)Nc3cc(-c4ccc5nc(NC6CCNCC6)ncc5c4)n(C)n3)cc2C(F)(F)F)CC1 | > 0.1 |  |  |
| CNCCN(C)Cc1ccc(NC(=O)Nc2cc(-c3ccc4nc(NC5CCC(N)CC5)ncc4c3)n(C)n2)cc1C(F)(F)F (centres unmarked) | < 0.005 | 0.005 to 0.05 |  |
| CN1CCN(Cc2ccc(NC(=O)Nc3cc(-c4ccc5nc(NC6CCNCC6)ncc5c4)n(C)n3)cc2C(F)(F)F)CC1 [2; TFA] | > 0.1 |  |  |
| CC(c1ccc(NC(=O)Nc2cc(-c3ccc4nc(N[C@H]5CCCNC5)ncc4c3)n(C)n2)cc1C(F)(F)F)N1CCN(C)CC1 (some centres unmarked) | < 0.005 | < 0.005 |  |
| CCc1cc(-c2cc(NC(=O)Cc3ccc(CN4CCN(C)CC4)c(C(F)(F)F)c3)nn2C)cc2cnc(NC3CCC(N)CC3)nc12 (centres unmarked) | > 0.1 |  |  |
| CN1CCN(Cc2ccc(NC(=O)Nc3cc(-c4ccc5nc(N[C@H]6CC[C@H](O)CC6)ncc5c4)n(C)n3)cc2C(F)(F)F)CC1 | < 0.005 | < 0.005 |  |
| CN1CCN(Cc2ccc(NC(=O)Nc3cc(-c4ccc5nc(N[C@H]6CC[C@@H](N)CC6)ncc5c4)n(C)n3)cc2C(F)(F)F)CC1 | < 0.005 | 0.005 to 0.05 |  |
| CN1CCN(Cc2ccc(NC(=O)Nc3cc(-c4ccc5nc(N[C@@H]6CCC[C@@H](N)C6)ncc5c4)n(C)n3)cc2C(F)(F)F)CC1 | < 0.005 | > 0.1 |  |
| CN1CCN(Cc2ccc(NC(=O)Nc3cc(-c4ccc5nc(N[C@H]6CCNC6)ncc5c4)n(C)n3)cc2C(F)(F)F)CC1 | < 0.005 | > 0.1 |  |
| CN1CCN(Cc2cnc(NC(=O)Nc3cc(-c4ccc5nc(NC6CCNCC6)ncc5c4)n(C)n3)cc2C(F)(F)F)CC1 | 0.05 to 0.1 |  |  |
| CNCCN(C)Cc1ccc(NC(=O)Nc2cc(-c3ccc4nc(N)ncc4c3)n(C)n2)cc1C(F)(F)F | 0.005 to 0.05 | > 0.1 |  |

| Structure (SMILES) | EC50 [1, 3] [µM] | EC50 [2] [µM] | also measured |
| --- | --- | --- | --- |
| CN1CCN(Cc2ccc(NC(=O)Nc3cc(-c4ccc5nc(N[C@H]6CCC[C@@H](N)C6)ncc5c4)n(C)n3)cc2C(F)(F)F)CC1 | < 0.005 | > 0.1 |  |
| CN1CCN(Cc2ccc(NC(=O)Nc3cc(-c4ccc5nc(N[C@@H]6CCNC6)ncc5c4)n(C)n3)cc2C(F)(F)F)CC1 |  |  | EC50 ([1]; read-out: Mean EC50, SignalChem IRE1α protein 2 nM, tested form: formate): < 0.005 µM; EC50 ([2]; tested form: formate): > 0.1 µM |
| CN1CCN(Cc2ccc(NC(=O)Nc3cc(-c4ccc5nc(N[C@H]6CCCNC6)ncc5c4)n(C)n3)cc2C(F)(F)F)CC1 | < 0.005 | 0.005 to 0.05 |  |
| CC(c1ccc(NC(=O)Nc2cc(-c3ccc4nc(NC5CCC(N)CC5)ncc4c3)n(C)n2)cc1C(F)(F)F)N1CCN(C)CC1 (centres unmarked) | < 0.005 | < 0.005 |  |
| CN(CCN)Cc1ccc(NC(=O)Nc2cc(-c3ccc4nc(N)ncc4c3)n(C)n2)cc1C(F)(F)F | > 0.1 | > 0.1 |  |
| CCc1cc(-c2cc(NC(=O)Nc3ccc(CN4CCN(C)CC4)c(C(F)(F)F)c3)nn2C)cc2cnc(N)nc12 | 0.005 to 0.05 | 0.05 to 0.1 |  |
| CN1CCN(Cc2ccc(NC(=O)Nc3cc(-c4ccc5nc(NC6CCCNC6)ncc5c4)n(C)n3)cc2C(F)(F)F)CC1 (centres unmarked) |  |  | EC50 [1, 4]: < 0.005 µM; EC50 ([2]; tested form: trifluoroacetate): 0.005 to 0.05 µM |
| CNC1CCN(Cc2ccc(NC(=O)Nc3cc(-c4ccc5nc(NC6CCC(N)CC6)ncc5c4)n(C)n3)cc2C(F)(F)F)CC1 (centres unmarked) | < 0.005 |  |  |
| CN1CCN(Cc2ccc(NC(=O)Nc3cc(-c4ccc5nc(N[C@H]6CC[C@H](N)CC6)ncc5c4)n(C)n3)cc2C(F)(F)F)CC1 |  |  | EC50 [1, 4]: < 0.005 µM; EC50 ([2]; tested form: trifluoroacetate): 0.005 to 0.05 µM |
| CCc1cc(-c2cc(NC(=O)Nc3ccc(CN4CCN(C)CC4)c(C(F)(F)F)c3)nn2C)cc2cnc(NC3CCC(O)CC3)nc12 (centres unmarked) | < 0.005 |  |  |
| CN1CCN(Cc2ccc(NC(=O)Nc3cc(-c4ccc5nc(N[C@@H]6CCCNC6)ncc5c4)n(C)n3)cc2C(F)(F)F)CC1 | < 0.005 | > 0.1 |  |
| Cn1nc(NC(=O)Nc2ccc(CN3CCC(N)CC3)c(C(F)(F)F)c2)cc1-c1ccc2nc(N[C@H]3CC[C@H](N)CC3)ncc2c1 | < 0.005 | 0.05 to 0.1 |  |
| CN(C)CCN(C)Cc1ccc(NC(=O)Nc2cc(-c3ccc4nc(NC5CCNCC5)ncc4c3)n(C)n2)cc1C(F)(F)F | 0.05 to 0.1 | > 0.1 |  |
| CN1CCN(Cc2ccc(NC(=O)Nc3cc(-c4ccc5nc(NC6CCC(F)(F)CC6)ncc5c4)n(C)n3)cc2C(F)(F)F)CC1 | > 0.1 | > 0.1 |  |
| CN1CCN(Cc2cc(NC(=O)Nc3cc(-c4ccc5nc(NC6CCNCC6)ncc5c4)n(C)n3)cc(C(F)(F)F)c2)CC1 | > 0.1 | > 0.1 |  |
| CN1CCN(Cc2ccc(NC(=O)Nc3cc(-c4ccc5nc(NCCCN)ncc5c4)n(C)n3)cc2C(F)(F)F)CC1 | < 0.005 | > 0.1 |  |
